Drawing on ChEMBL document CHEMBL1131073, “Structure-activity study of the nociceptin(1-13)-NH2 N-terminal tetrapeptide and discovery of a nociceptin receptor antagonist” (J Med Chem, 1998), this text covers Emax for 1 compound.

Molecules are shown by their SMILES.

The experiment is filed under the species Mus musculus. The experiment can be described thus: The maximal effect induced by an agonist expressed as percent inhibition of electrically induced twitches. The experiment is classed as functional. Summed up:
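Vas deferens from Swiss male mice (25–30 g), prepared per Hughes, in Mg2+-free Krebs (95% O2/5% CO2, pH 7.4) at 33 °C, 0.3 g resting tension. Field stimulation via platinum ring electrodes: supramaximal 1-ms pulses, 0.1 Hz. Isotonic twitch recording. After ~2 h equilibration, cumulative concentration–response curves in 0.5 log steps. Mean ± SEM of at least four experiments; pEC50 with 95% confidence limits.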

Compound `CC(C)C[C@H](NC(=O)[C@H](CCCCN)NC(=O)[C@H](CCCNC(=N)N)NC(=O)[C@H](C)NC(=O)[C@H](CO)NC(=O)[C@H](CCCCN)NC(=O)[C@H](CCCNC(=N)N)NC(=O)[C@H](C)NC(=O)CNC(=O)[C@@H](NC(=O)[C@H](Cc1ccccc1)NC(=O)CNC(=O)CNC(=O)[C@@H](N)Cc1ccccc1)[C@@H](C)O)C(=O)N[C@@H](C)C(=O)N[C@@H](CC(N)=O)C(=O)N[C@@H](CCC(N)=O)C(N)=O` [NOCICEPTIN-NH2] displayed an Emax of -79.
